{
  "sequences": {"note": "Protein sequences, listed by entry. Tags and fused reporters are not part of them. Lines headed by an entry give the natural chain unless they say otherwise; changes in a name come on top.", "UniProt P14740": "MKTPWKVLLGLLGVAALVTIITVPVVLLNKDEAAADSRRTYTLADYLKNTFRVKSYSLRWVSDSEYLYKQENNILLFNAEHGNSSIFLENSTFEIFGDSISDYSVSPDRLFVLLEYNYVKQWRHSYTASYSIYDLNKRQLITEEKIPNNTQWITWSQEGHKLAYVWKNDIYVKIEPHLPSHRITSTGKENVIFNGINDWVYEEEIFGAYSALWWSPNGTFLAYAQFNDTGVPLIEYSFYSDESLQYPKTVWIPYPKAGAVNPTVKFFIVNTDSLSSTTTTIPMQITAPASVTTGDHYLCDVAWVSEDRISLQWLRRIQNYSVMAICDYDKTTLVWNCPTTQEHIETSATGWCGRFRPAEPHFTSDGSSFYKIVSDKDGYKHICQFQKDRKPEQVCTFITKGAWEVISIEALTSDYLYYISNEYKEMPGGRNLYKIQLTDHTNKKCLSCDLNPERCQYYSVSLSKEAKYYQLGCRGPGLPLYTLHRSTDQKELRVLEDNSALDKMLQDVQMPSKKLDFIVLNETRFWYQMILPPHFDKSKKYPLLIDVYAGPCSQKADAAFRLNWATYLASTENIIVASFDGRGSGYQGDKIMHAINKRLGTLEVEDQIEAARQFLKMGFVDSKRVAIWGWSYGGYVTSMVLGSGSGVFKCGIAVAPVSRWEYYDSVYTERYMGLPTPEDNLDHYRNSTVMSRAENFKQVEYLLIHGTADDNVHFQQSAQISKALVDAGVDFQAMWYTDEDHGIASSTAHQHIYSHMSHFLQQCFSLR"},
  "source": "paper PMC5390258",
  "about": "“CMD-05, a novel promising clinical anti-diabetic drug candidate, in vivo and vitro studies” (Scientific Reports, 2017)",
  "target": "T1, plasma DPP-IV (Rattus norvegicus, UniProt P14740)",
  "T1 construct": "from tissue; host or cells: plasma of Sprague-Dawley rats",
  "assay": "Plasma DPP-IV activity determination in model rats",
  "type": "in vivo",
  "note": "Where two headings read alike, the source gives them in different places.",
  "data": [
    {"smiles": "N#C[C@@H]1CCCN1C(=O)CNC12CC3CC(CC(O)(C3)C1)C2", "note": "[vildagliptin, reference compound]", "values": [
      {"measurement": "inhibition at 3 mg/kg", "setting": "read-out: plasma DPP-IV inhibition rate, fasted plasma, 3 mg/kg, model rats", "value": "~60", "unit": "%"},
      {"measurement": "inhibition at 3 mg/kg", "setting": "read-out: plasma DPP-IV inhibition, glucose load plasma, 3 mg/kg, model rats", "value": "~80", "unit": "%"},
      {"measurement": "inhibition at 3 mg/kg", "setting": "read-out: plasma DPP-IV inhibition, random plasma, 3 mg/kg, model rats", "value": "~60", "unit": "%"}
    ]}
  ]
}
